The experiment can be described thus: Selectivity ratio, IC50 for Trypanosoma cruzi Y PDEC to IC50 for human PDE4.

Consider `CCCCC(=O)c1ccc(OC2CCOC2)c(OC)c1` (configuration not stated), for which the Ratio IC50 worked out at 4.

Turning to `CCCC(=O)c1ccc(OC2CCOC2)c(OC)c1` (configuration not stated), the Ratio IC50 was found to be 4.

Values taken from ChEMBL document CHEMBL1671721, “Chemical validation of phosphodiesterase C as a chemotherapeutic target in Trypanosoma cruzi, the etiological agent of Chagas' disease” (Antimicrob Agents Chemother, 2010).
